Literature values as cited in US20230265065A1 (WEST VIRGINIA UNIVERSITY BOARD OF GOVERNORS ON BEHALF OF …, priority 2020, published 2023).

Columns and labels:
wild-type mice = settings: cited from earlier work
Ptprd knockout mice = settings: cited from earlier work

SMILES: CCCCOc1cc2c(c(C=O)c1OC)CC(O)OC2=O (centres unmarked)
- cocaine conditioned place preference and self-administration (wild-type mice): reduces cocaine conditioned place preference and self-administration
- cocaine conditioned place preference and self-administration (Ptprd knockout mice): but not in the Ptprd knockout mice
